As a reminder, the pIC50 is the negative decadic logarithm of the IC50, by convention in mol/L. Low readings indicate a high IC50, high ones a low IC50.

Protein sequences, listed by entry. Tags and fused reporters are not part of them. Residues count along the entry.
UniProt P15056, whole entry: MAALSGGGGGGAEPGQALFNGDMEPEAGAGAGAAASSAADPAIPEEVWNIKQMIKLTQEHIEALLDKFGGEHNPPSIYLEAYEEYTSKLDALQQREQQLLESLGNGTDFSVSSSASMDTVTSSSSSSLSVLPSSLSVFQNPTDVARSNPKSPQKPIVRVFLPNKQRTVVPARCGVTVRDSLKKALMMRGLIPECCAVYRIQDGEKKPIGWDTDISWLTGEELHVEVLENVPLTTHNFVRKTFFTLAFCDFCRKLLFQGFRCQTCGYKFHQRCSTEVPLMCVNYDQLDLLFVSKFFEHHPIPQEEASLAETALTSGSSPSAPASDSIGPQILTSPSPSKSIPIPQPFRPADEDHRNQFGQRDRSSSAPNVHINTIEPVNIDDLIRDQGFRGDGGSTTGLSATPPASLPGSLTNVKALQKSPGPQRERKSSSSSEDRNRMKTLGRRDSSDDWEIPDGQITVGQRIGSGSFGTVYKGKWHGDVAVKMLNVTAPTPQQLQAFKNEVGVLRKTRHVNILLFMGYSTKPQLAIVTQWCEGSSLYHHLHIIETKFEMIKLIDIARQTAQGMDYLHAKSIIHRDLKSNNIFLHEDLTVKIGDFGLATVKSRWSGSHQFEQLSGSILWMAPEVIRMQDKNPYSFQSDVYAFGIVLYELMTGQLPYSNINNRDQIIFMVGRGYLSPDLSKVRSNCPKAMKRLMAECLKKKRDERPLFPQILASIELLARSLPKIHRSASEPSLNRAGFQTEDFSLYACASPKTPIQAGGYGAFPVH
UniProt P15056, 2-766 V600E limits assumed: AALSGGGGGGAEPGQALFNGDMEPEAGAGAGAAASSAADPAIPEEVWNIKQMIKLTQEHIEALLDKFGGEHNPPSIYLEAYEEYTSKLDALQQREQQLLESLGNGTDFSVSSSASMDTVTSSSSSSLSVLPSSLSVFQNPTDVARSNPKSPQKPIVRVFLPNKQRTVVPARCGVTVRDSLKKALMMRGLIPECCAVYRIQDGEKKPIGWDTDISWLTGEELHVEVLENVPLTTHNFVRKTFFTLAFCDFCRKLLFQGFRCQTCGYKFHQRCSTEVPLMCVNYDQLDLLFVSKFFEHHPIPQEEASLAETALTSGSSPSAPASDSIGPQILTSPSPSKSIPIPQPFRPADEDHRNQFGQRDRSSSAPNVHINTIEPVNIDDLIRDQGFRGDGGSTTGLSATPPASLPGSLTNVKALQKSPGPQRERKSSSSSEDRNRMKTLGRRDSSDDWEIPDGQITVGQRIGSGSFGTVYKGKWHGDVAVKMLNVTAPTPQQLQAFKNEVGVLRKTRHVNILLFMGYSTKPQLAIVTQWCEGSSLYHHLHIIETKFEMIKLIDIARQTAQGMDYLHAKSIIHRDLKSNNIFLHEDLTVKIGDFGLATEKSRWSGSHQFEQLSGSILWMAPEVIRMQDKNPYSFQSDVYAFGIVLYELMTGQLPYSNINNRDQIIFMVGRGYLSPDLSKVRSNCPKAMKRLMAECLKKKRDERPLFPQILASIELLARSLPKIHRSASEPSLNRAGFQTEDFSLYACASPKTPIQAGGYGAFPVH

pIC50: −log10 of the molar value.

Here are results for 1 molecule from ChEMBL document CHEMBL5444388, “Affinity Phenotypic Cellular Literature for EUbOPEN Chemogenomic Library” (2024).

Assay [1] concerns the target T1, Serine/threonine-protein kinase B-raf (Homo sapiens, UniProt P15056).
Assay [2] addresses T1, Serine/threonine-protein kinase B-raf. This is another data set of the same source.
Assay [3] has the same target. This is another data set of the same source.
Assay [4] shares this target. The source holds these as a separate data set.
For assay [5] the target is unchanged. The source holds these as a separate data set.
Assay [6] deals with T2, Serine/threonine-protein kinase B-raf (Homo sapiens, UniProt P15056, V600E).
Assay [7] concerns the target T2, Serine/threonine-protein kinase B-raf. This is another data set of the same source.
For assay [8] the target is unchanged. The source holds these as a separate data set.
For assay [9] the target is unchanged. The source holds these as a separate data set.

For `CN(C)CCOc1ccc(-c2nc(-c3ccncc3)c(-c3ccc4c(c3)CC/C4=N\O)[nH]2)cc1` [SB590885], the pIC50 in assay [1] was 4.96; in assay [2], 5.29; in assay [3], 5.21; in [4], 5.96; in assay [5], 5.82; in [6], 7.55. For the same molecule, the negative logarithm of the IC50 (pIC50) in [7] is 7.24; in assay [8], 6.72; in assay [9], 7.24.
